## Reported properties for industrial, environmental and drug-like chemicals

Values as listed in the OPERA 2.9 repository of K. Mansouri.

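The numbers are reported measurements, compiled and curated for the OPERA QSAR suite. One number stands for a compound and property, with no spread given. How each value was measured is not recorded, so precision varies. Where a salt, mixture or single isomer is drawn, the source does not say that exactly this form was tested. Some upstream entries may be estimates or bounds without being marked so.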

Melting points are in °C.
The boiling point refers to atmospheric pressure (760 mmHg), by the definition of the set.
The octanol-water partition coefficient is given as log10; larger values mean a more lipophilic compound.
Solubility in water is on a log10 molar scale (set defined at 25 °C).
Vapor pressure is log10 of mmHg; the set covers 15 to 30 °C, mostly 20 to 25 °C.
Henry's law constant (air-water partitioning) is log10 of atm·m3/mol, nominally at 25 °C.
The unbound fraction in human plasma runs from 0 (all bound) to 1 (all free).
Intrinsic clearance (human, µL/min per 10^6 hepatocytes): higher is faster turnover, and 0 stands for none detected.

{"smiles": "CCN1CCCCCC1=O", "name": "2H-Azepin-2-one, hexahydro-1-ethyl-", "MP (°C)": "-19", "log vapor pressure (log10 mmHg)": "-1.295"}
{"smiles": "O=C(O)CCSCCC(=O)O", "name": "3,3'-Thiodipropionic acid", "logP": "0.19", "log vapor pressure (log10 mmHg)": "-4.478"}
{"smiles": "CCCCc1oc2ccc([N+](=O)[O-])cc2c1C(=O)c1ccc(O)cc1", "MP (°C)": "130.3", "logP": "3.72", "water solubility (log10 mol/L)": "-6.188", "log vapor pressure (log10 mmHg)": "-5.663"}
{"smiles": "CCCc1ccc(-c2cc(F)c(C(F)(F)Oc3cc(F)c(F)c(F)c3)c(F)c2)cc1", "MP (°C)": "43.8", "water solubility (log10 mol/L)": "-6.884", "log vapor pressure (log10 mmHg)": "-3.887"}
{"smiles": "CN(C=O)c1ccccc1", "name": "Formamide, N-methyl-N-phenyl-", "water solubility (log10 mol/L)": "-1.495", "log vapor pressure (log10 mmHg)": "-1.7"}
{"smiles": "CCCCOC(=O)C(C)OC(=O)CCC", "stereo": "stereo not drawn", "name": "1-Butoxy-1-oxopropan-2-yl butanoate", "water solubility (log10 mol/L)": "-2.888", "log vapor pressure (log10 mmHg)": "-1.684"}
{"smiles": "CCCCCCC(=O)OCC(CC)(COC(=O)CCCCCC)COC(=O)CCCCCC", "name": "1,1,1-Trimethylolpropane triheptanoate", "MP (°C)": "-66", "water solubility (log10 mol/L)": "-6.974"}
{"smiles": "CCCCCC1CCC(C2CCC(CCC)CC2)CC1", "stereo": "stereo not drawn", "name": "4-Pentyl-4'-propyl-1,1'-bi(cyclohexane)", "MP (°C)": "96", "BP (°C)": "366", "logP": "4.4", "water solubility (log10 mol/L)": "-6.746", "log vapor pressure (log10 mmHg)": "-5.381"}
{"smiles": "O=C1c2c(O)ccc(Nc3ccccc3)c2C(=O)c2c([N+](=O)[O-])ccc(O)c21", "name": "Disperse Blue 77", "MP (°C)": "230", "logP": "6.9", "water solubility (log10 mol/L)": "-8.646"}
{"smiles": "CC1CCC2CC1C2(C)C", "stereo": "stereo not drawn", "name": "Pinane", "logP": "4.35", "water solubility (log10 mol/L)": "-4.414", "log vapor pressure (log10 mmHg)": "0.438"}
{"smiles": "CCOC(=O)CNC(=O)C(C(C)C)N(C(C)=O)c1cccc(C(F)(F)F)c1", "stereo": "stereo not drawn", "MP (°C)": "95.3", "water solubility (log10 mol/L)": "-3.175"}
{"smiles": "CCOC(=O)C(C)=O", "name": "Propanoic acid, 2-oxo-, ethyl ester", "logP": "0.435", "log vapor pressure (log10 mmHg)": "0.248"}
{"smiles": "COc1cc(S(=O)(=O)[O-])c(C)cc1NC(=O)CC(C)=O.[NH4+]", "MP (°C)": "160", "logP": "-2.7"}
{"smiles": "CC(C)=CCCC(C)CC#N", "stereo": "stereo not drawn", "name": "3,7-Dimethyloct-6-enenitrile", "logP": "3.213", "water solubility (log10 mol/L)": "-3.108", "log vapor pressure (log10 mmHg)": "-1.443"}
{"smiles": "C=C(C)c1cccc(C(=C)C)c1", "name": "m-Bis(1-methylvinyl)benzene", "MP (°C)": "-42", "water solubility (log10 mol/L)": "-4.451", "log vapor pressure (log10 mmHg)": "-0.885"}
{"smiles": "CCCCCCCCCCCCCCCCCCNC(=O)CCc1cc(C(C)(C)C)c(O)c(C(C)(C)C)c1", "MP (°C)": "85", "log vapor pressure (log10 mmHg)": "-6.312"}
{"smiles": "CCC1CCC(c2ccc(-c3cc(F)c(C(F)(F)Oc4cc(F)c(F)c(F)c4)c(F)c3)cc2)OC1", "stereo": "stereo not drawn", "MP (°C)": "79.6", "water solubility (log10 mol/L)": "-6.768", "log vapor pressure (log10 mmHg)": "-8.709"}
{"smiles": "CCC(C)(C)OC", "name": "Tert-amyl methyl ether", "fraction unbound": "0.8097", "intrinsic clearance (µL/min/10^6 cells)": "2.1"}
{"smiles": "CC=CC=C1C(C)=CC(=O)CC1(C)C", "name": "Tabanone", "MP (°C)": "-59.2", "logP": "3.11", "water solubility (log10 mol/L)": "-2.722", "log vapor pressure (log10 mmHg)": "-1.153"}
{"smiles": "CC/C(=C\\CC1CC=C(C)C1(C)C)CO", "stereo": "stereo partly drawn", "BP (°C)": "278.7", "logP": "4.3", "water solubility (log10 mol/L)": "-3.907", "log vapor pressure (log10 mmHg)": "-3.892"}
{"smiles": "Cc1ccc(C(=O)c2cc(O)c(O)c([N+](=O)[O-])c2)cc1", "name": "Tolcapone", "logP": "4", "water solubility (log10 mol/L)": "-3.681", "intrinsic clearance (µL/min/10^6 cells)": "22"}
{"smiles": "COCCOCCOCCOCCO", "name": "2,5,8,11-Tetraoxatridecan-13-ol", "MP (°C)": "-39", "logP": "-0.86", "log vapor pressure (log10 mmHg)": "-0.974"}
{"smiles": "N#Cc1ccc2c(c1)COC2=O", "name": "1-Oxo-1,3-dihydro-2-benzofuran-5-carbonitrile", "logP": "0.136", "water solubility (log10 mol/L)": "-2.248"}
{"smiles": "CCCCCC1CC(=O)C=C(C)C1C(=O)OCC", "stereo": "stereo not drawn", "water solubility (log10 mol/L)": "-3.187", "log vapor pressure (log10 mmHg)": "-4.426"}
{"smiles": "CC(=O)Oc1ccccc1C(=O)O", "name": "Aspirin", "BP (°C)": "140", "fraction unbound": "0.4297", "intrinsic clearance (µL/min/10^6 cells)": "8.57"}
{"smiles": "N[C@@H](Cn1ccc(=O)c(O)c1)C(=O)O", "name": "(S)-alpha-Amino-3-hydroxy-4-oxo-1(4H)-pyridylpropionic acid", "logP": "-2.5", "water solubility (log10 mol/L)": "-1.18"}
{"smiles": "CC(C)C(C)(C)[C@@H]1CCC(=O)[C@H](C)C1", "stereo": "relative stereo", "name": "cis-2-Methyl-4-(1,1,2-trimethylpropyl)cyclohexanone", "MP (°C)": "35.75", "BP (°C)": "267.5", "logP": "2.76", "water solubility (log10 mol/L)": "-4.252", "log vapor pressure (log10 mmHg)": "-2.075"}
{"smiles": "CCCCC1CCC(C2CCC(c3ccc(OCC)c(F)c3F)CC2)CC1", "stereo": "stereo not drawn", "MP (°C)": "114.4", "log vapor pressure (log10 mmHg)": "-6.907"}
{"smiles": "CCc1ccccc1", "name": "Ethylbenzene", "fraction unbound": "0.1676", "intrinsic clearance (µL/min/10^6 cells)": "2.004"}
{"smiles": "Nc1ccc(S(N)(=O)=O)cc1", "name": "Sulfanilamide", "log vapor pressure (log10 mmHg)": "-5.137", "log H (log10 atm·m3/mol)": "-9.824"}
{"smiles": "C#CC1(C)CCCC(C)(C)O1", "stereo": "stereo not drawn", "name": "2H-Pyran, 2-ethynyltetrahydro-2,6,6-trimethyl-", "MP (°C)": "50", "log vapor pressure (log10 mmHg)": "0.44"}
{"smiles": "Cc1ccc(Cl)cc1N=Nc1c(O)c(C(=O)Nc2cc(C)c(NC(=O)c3cc4ccccc4c(N=Nc4cc(Cl)ccc4C)c3O)cc2C)cc2ccccc12", "logP": "0.53", "water solubility (log10 mol/L)": "-7.678"}
{"smiles": "C=C1[C@H]2CC[C@@H]3[C@H]2C(C)(C)CCC[C@]13C", "name": "Longifolene", "logP": "5", "water solubility (log10 mol/L)": "-4.413", "log vapor pressure (log10 mmHg)": "-1.401"}
{"smiles": "Clc1cc(Cl)ncn1", "name": "4,6-Dichloropyrimidine", "logP": "1.45", "log vapor pressure (log10 mmHg)": "-0.541"}